Assay results as given in PMC6176987, “Correction of cognitive deficits in mouse models of Down syndrome by a pharmacological inhibitor of DYRK1A” (Disease Models & Mechanisms, 2018).

Protein sequences, listed by entry. Tags and fused reporters are not part of them. Lines headed by an entry give the natural chain unless they say otherwise; changes in a name come on top.
UniProt O35493: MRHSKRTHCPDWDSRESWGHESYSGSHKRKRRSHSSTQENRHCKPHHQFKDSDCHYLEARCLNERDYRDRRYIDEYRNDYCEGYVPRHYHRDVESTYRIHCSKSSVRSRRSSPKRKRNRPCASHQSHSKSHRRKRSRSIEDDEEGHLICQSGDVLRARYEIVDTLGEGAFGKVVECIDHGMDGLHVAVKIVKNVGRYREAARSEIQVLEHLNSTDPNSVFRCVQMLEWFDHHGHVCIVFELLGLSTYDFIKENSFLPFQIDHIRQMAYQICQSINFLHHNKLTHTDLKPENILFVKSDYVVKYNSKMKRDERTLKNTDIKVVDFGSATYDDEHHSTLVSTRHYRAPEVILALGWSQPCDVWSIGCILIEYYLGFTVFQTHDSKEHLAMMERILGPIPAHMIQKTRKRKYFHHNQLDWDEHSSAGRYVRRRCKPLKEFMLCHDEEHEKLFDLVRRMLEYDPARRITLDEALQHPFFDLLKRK

Legend:
CLK4 = CLK4 (Mus musculus, UniProt O35493); experiment: Recombinant protein kinase assay, CLK4
DYRK3 = molecular target: T1, DYRK3 (Homo sapiens, UniProt O43781); experiment: Recombinant protein kinase assay, DYRK3
T1 sequence (O43781 1-588): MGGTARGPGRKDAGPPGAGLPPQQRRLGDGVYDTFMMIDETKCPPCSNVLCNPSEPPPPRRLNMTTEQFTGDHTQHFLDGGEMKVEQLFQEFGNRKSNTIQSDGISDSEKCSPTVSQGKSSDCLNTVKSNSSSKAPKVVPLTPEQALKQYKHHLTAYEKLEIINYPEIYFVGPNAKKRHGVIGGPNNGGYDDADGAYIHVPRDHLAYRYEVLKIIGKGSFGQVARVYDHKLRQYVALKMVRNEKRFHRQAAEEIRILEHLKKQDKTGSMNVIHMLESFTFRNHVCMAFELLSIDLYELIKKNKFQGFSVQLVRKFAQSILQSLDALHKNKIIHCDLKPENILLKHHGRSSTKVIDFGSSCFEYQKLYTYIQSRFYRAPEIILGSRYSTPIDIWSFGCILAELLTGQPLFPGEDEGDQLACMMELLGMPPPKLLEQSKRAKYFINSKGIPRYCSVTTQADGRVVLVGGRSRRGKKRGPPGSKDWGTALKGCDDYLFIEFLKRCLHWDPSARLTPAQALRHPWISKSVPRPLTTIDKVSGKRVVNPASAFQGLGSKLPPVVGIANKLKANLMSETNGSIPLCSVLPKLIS

O=C1NC(Nc2ccccc2)=N/C1=C\c1ccc2c(c1)OCO2 [L41] was tested, and the IC50 (CLK4) was 23 nM and the IC50 (DYRK3) was 230 nM.
